## Antibody variant affinities, Ab-95 light chain, assay 2

From the AlphaSeq antibody data of Engelhart et al. 2022 (doi:10.1038/s41597-022-01779-4), copy in the FLAb collection.

Antigen: PDVDLGDISGINAS, a 14-residue peptide of the SARS-CoV-2 spike HR2 region.

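Variants in AAYL52 differ from the parent at up to three CDR positions; double and triple changes were sampled at random. In AlphaSeq, yeast of one mating type display the scFv and yeast of the other type display the target. Pairs that bind mate more often; barcode pairs of the diploids are counted by sequencing. Each replicate has its own calibration line, from reference interactions of the BCL2 family. Each pool was mated in three replicate cultures.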

The variants keep the heavy chain, the linker and the frameworks of Ab-95 (scFv order VH, a 15-residue (Gly4Ser)3 linker, VL).
VH: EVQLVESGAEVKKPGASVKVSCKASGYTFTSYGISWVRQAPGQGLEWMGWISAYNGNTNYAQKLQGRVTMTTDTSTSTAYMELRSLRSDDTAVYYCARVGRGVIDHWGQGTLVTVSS
VL: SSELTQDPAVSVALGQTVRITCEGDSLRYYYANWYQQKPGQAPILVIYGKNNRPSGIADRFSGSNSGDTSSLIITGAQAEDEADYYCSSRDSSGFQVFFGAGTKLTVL

Changes read parent residue, position, new residue, counted from the first residue of the VL shown.
Every variant below is changed at P54 of the VL (sequential numbering).
Scale: log10 of Kd in nM, estimated from mating counts; low values are strong binders.
A mean of the replicates is given; it leaves out those without a signal.
"no signal" marks a missing value. The strain was present, yet no cells mated with the target were sequenced in any replicate, which points to weak or no binding.
Entries are sorted by rising average, undetected variants last.

With Y30G P54F V97W the result was 1.40 (3 of 3 replicates; controls 5 of 9).
With A32P P54V S89I the result was 1.97 (3 of 3 replicates; controls 3 of 9).
With R28P P54M the result was 2.45 (3 of 3 replicates; controls 1 of 9).
With D25T A32V P54Q the result was 2.83 (3 of 3 replicates; controls 2 of 9).
With P54S D91P S93V the result was 3.01 (3 of 3 replicates; controls 5 of 9).
With D25R K50H P54W the result was 3.10 (3 of 3 replicates; controls 0 of 9).
With R53G P54G the result was 3.12 (2 of 3 replicates; controls 2 of 9).
With D25V A32W P54V the result was 3.22 (3 of 3 replicates; controls 3 of 9).
With P54N S55E D91K the result was 3.25 (3 of 3 replicates; controls 2 of 9).
With Y30F P54R F98W the result was 3.35 (2 of 3 replicates; controls 0 of 9).
With N52R P54M F98Q the result was 3.57 (3 of 3 replicates; controls 4 of 9).
With N51V P54D R90Y the result was 3.72 (1 of 3 replicates; controls 2 of 9).
With N51Y P54K the result was 3.73 (3 of 3 replicates; controls 6 of 9).
With P54G D91N Q96M the result was 3.87 (1 of 3 replicates; controls 4 of 9).
With G49E P54K the result was 3.89 (2 of 3 replicates; controls 3 of 9).
With G24M L27D P54Y the result was 3.92 (1 of 3 replicates; controls 2 of 9).
With G49P P54E the result was 4.10 (1 of 3 replicates; controls 3 of 9).
With Y30L P54W Q96E the result was 4.12 (2 of 3 replicates; controls 0 of 9).
With S26L R53T P54K the result was 4.13 (3 of 3 replicates; controls 3 of 9).
With N51K P54Q D91L the result was 4.24 (2 of 3 replicates; controls 3 of 9).
With G49R P54C the result was 4.30 (2 of 3 replicates; controls 1 of 9).
With Y29P K50H P54Y the result was 4.45 (2 of 3 replicates; controls 5 of 9).
With P54N D91K the result was 4.55 (2 of 3 replicates; controls 2 of 9).
With Y30F N33V P54A the result was 4.67 (1 of 3 replicates; controls 5 of 9).
With L27T P54S D91W the result was no signal (0 of 3 replicates; controls 2 of 9).
With G49K P54W F95H the result was no signal (0 of 3 replicates; controls 4 of 9).
With L27Q R28N P54M the result was no signal (0 of 3 replicates; controls 1 of 9).
With P54T R90K the result was no signal (0 of 3 replicates; controls 1 of 9).
With P54C S88G S92L the result was no signal (0 of 3 replicates; controls 2 of 9).
With A32M P54C V97F the result was no signal (0 of 3 replicates; controls 2 of 9).
With L27R P54Y the result was no signal (0 of 3 replicates; controls 0 of 9).
With G49I P54V G94M the result was no signal (0 of 3 replicates; controls 1 of 9).

3 of these entries, quoted again:

The variant P54S D91P S93V gave 3.01 (3 of 3 replicates; controls 5 of 9).
The variant G49P P54E gave 4.10 (1 of 3 replicates; controls 3 of 9).
The variant A32M P54C V97F gave no signal (0 of 3 replicates; controls 2 of 9).

Three control strains display no target. For library AAYL52, 28% of the pairings with them gave a signal, with a median of 3.91 and one signal in twenty below 2.90, so weak values seen in few replicates may be background. For each scFv, signals with the empty controls are counted beside the result.